{"source": "paper PMC3792958", "about": "“Olomoucine II, but Not Purvalanol A, Is Transported by Breast Cancer Resistance Protein (ABCG2) and P-Glycoprotein (ABCB1)” (PLoS ONE, 2013)", "origin": "cited, not measured here", "key": {"ABCG2 [1]": {"system": "ABCG2", "parameters": "method as in PMID 18841444", "settings": "in vitro hematoporphyrin transport, Sf9 membrane vesicles; cited from earlier work"}, "ABCB1": {"system": "ABCB1", "settings": "cited from earlier work"}, "ABCG2 [2]": {"system": "ABCG2", "settings": "in vitro and in situ levels; cited from earlier work"}}}
{"compound": "CC[C@H](CO)Nc1nc(NCc2ccccc2)c2ncn(C(C)C)c2n1", "note": "[roscovitine]", "values": [{"measurement": "ABCG2 inhibition", "setting": "ABCG2 [1]", "result": "ABCG2 inhibition"}, {"measurement": "ABCB1 substrate affinity", "setting": "ABCB1", "result": "high affinity ABCB1 substrate"}, {"measurement": "inhibition of ABCG2", "setting": "ABCG2 [2]", "result": "inhibition of ABCG2"}]}
